Laboratory results taken from PubChem BioAssay AID493232 (The Scripps Research Institute Molecular Screening Center, 2011).
This is a selection; strong and weak results do not stand in their true shares. Activity calls are given as the source filed them. Cut-off read from the data, not from the text of the source: active = inhibition above about 17%; inactive = the rest.

Assay: signal inhibition in parental CHO-K1 cells, counter-screen for OX1R antagonist project, cell-based, HTRF (AID 493232);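 note: 0% = agonist challenge with vehicle and 100% = vehicle alone without agonist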
Conditions: HTRF counterscreen, at 6.6 µM, active compounds read high
In the case of `O=[N+]([O-])c1cc([N+](=O)[O-])c(Nc2ccccn2)c([N+](=O)[O-])c1`, the inhibition is reported as active: 61.3%.
In the case of `O=[N+]([O-])c1cc([N+](=O)[O-])c(NCC2CCS(=O)(=O)C2)c([N+](=O)[O-])c1` (stereo not drawn), the inhibition is reported as active: 104%.
In the case of `O=[N+]([O-])c1cc([N+](=O)[O-])c(Nc2cccnc2)c([N+](=O)[O-])c1`, the inhibition is reported as active: 62.2%.
